This passage reports water solubility results from patent US20240279692A1, “PROCESS OF […] METAL SALT HYDRATE AND 3-HYDROXYPROPIONIC ACID” (LG CHEM, LTD., priority 2021, published 2024).

This data set is described as follows: water solubility of 3-hydroxypropionic acid salt crystal. The format is physicochemical. The settings on record: in water, at room temperature.

As to “3-hydroxypropionic acid calcium salt [Ca(3HP)2]”, the water solubility amounted to 450 mg/mL.
